Laboratory results: article PMC4301998 (Bioorganic & medicinal chemistry, 2014)

System: HepG2 cells
Conditions: RIF, concentration not given, 24 hr, CellTiter-Glo

CO[C@H]1/C=C/O[C@@]2(C)Oc3c(C)c(O)c4c(O)c(c(/C=N/N5CCN(C)CC5)c(O)c4c3C2=O)NC(=O)/C(C)=C\C=C\[C@H](C)[C@H](O)[C@@H](C)[C@@H](O)[C@@H](C)[C@H](OC(C)=O)[C@@H]1C [rifampicin, reference compound]
HepG2 cell viability (cytotoxicity): marginally cytotoxic
